Chains of the proteins cited; added tags and fusions are not shown.
UniProt P50613, whole entry, species assumed: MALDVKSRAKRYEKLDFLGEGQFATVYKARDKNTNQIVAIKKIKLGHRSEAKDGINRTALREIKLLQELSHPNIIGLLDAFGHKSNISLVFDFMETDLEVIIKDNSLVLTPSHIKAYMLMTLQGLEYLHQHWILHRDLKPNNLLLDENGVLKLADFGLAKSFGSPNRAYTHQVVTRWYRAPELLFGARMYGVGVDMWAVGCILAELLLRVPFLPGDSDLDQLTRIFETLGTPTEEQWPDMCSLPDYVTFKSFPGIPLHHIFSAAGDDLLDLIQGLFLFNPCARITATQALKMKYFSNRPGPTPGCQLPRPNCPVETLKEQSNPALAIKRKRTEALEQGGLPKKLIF

In patent publication US20070287718A1 (priority 2003, published 2007):

How the values were obtained:
CDK7/cyclin H = CDK7/cyclin H (Homo sapiens, UniProt P50613); settings: CDK7/CyclinH/Mat 1 (McClue et al., 2002); cited from earlier work
XG6 = settings: XG6, 25 μM of CYC202, two days
MDN = settings: 25 μM of CYC202, two days
XG1 = settings: XG1, 25 μM of CYC202, two days

SMILES	inhibition in vitro (CDK7/cyclin H)	inhibition of myeloma cell proliferation (XG6)	inhibition of myeloma cell proliferation (MDN)	inhibition of myeloma cell proliferation (XG1)
CC[C@H](CO)Nc1nc(NCc2ccccc2)c2ncn(C(C)C)c2n1 (racemic) [roscovitine, 2-[(1-ethyl-2-hydroxyethyl)amino]-6-benzylamine-9-isopropylpurine]	low μM concentrations	–	–	–
CC[C@H](CO)Nc1nc(NCc2ccccc2)c2ncn(C(C)C)c2n1 (single isomer, unassigned) [CYC202, 2-(1-R-hydroxymethylpropylamino)-6-benzylamino-9-isopurine]	–	total inhibition	total inhibition	total inhibition
